In paper PMC12392461, “Beyond Estrogenicity: A Comparative Assessment of Bisphenol A and Its Alternatives in In Vitro Assays Questions Safety of Replacements” (Environmental Science & Technology, 2025):

System: Tox21 assays
Test: Re-evaluated Tox21 data (Adamovsky et al.), REPBPA and SRbaseline;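 further: published Tox21 results reanalysed with a revised model predicting baseline toxicity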
Conditions: TOX21_PPARg_BLA_antagonist_ratio; Relative Effect Potency

Question: `Oc1ccc(C(c2ccc(O)cc2)(C(F)(F)F)C(F)(F)F)cc1` [BPAF, 4,4'-(1,1,1,3,3,3-Hexafluoropropane-2,2-diyl)diphenol] was tested. Which REPBPA did it give?
Answer: 0.32

Question: With `Cc1cc(C(C)(C)c2ccc(O)c(C)c2)ccc1O` [BPC] as the molecule, how does the REPBPA read?
Answer: 0.60

Question: `CC(c1ccc(O)cc1)c1ccc(O)cc1` [BPE, 4,4′-Ethylidenbisphenol] was tested. Which REPBPA did it give?
Answer: 0.18

Question: Which REPBPA does the source give for `Oc1ccc(Cc2ccc(O)cc2)cc1` [BPF, Bis(4-hydroxyphenyl)methane] here?
Answer: 0.19

Question: How did the REPBPA turn out when `Oc1ccc(Sc2ccc(O)cc2)cc1` [BPT, 4,4'-Thiodiphenol] was run?
Answer: 0.69

Question: With `CC(C)(c1cc(Cl)c(O)c(Cl)c1)c1cc(Cl)c(O)c(Cl)c1` [TCBPA, 2,2',6,6'-Tetrachlorobisphenol A] as the molecule, how does the REPBPA read?
Answer: 4.59
